Source: patent US12478617B2, “Lipidated peptide inhibitors of interleukin-23 receptor” (JANSSEN BIOTECH, INC., priority 2021, dated 2025)

Legend:
[1] = molecular target: IL-23R-expressing DB cells (Homo sapiens, UniProt Q5VWK5); assay: DB Cells IL23R pSTAT3 Cell Assay; format: cell-based; settings: pSTAT3 (HTRF) in IL-23R-expressing DB cells, 0.5 nM IL-23, 30 minutes; Table 6 'IL-23 Cell Data'
Source text: IL-23 is believed to play a central role in supporting and maintaining Th17 differentiation in vivo. This process is thought to be mediated primarily through the Signal Transducer and Activator of Transcription 3 (STAT3), with phosphorylation of STAT3 (to yield pSTAT3) leading to upregulation of RORC and pro-inflammatory IL-17. This cell assay examines the levels of pSTAT3 in IL-23R-expressing DB cells when stimulated with IL-23 in the presence of test compounds. Serial dilutions of test peptides and IL-23 (Humanzyme #HZ-1261) at a final concentration of 0.5 nM, were added to each well in a 96 well tissue culture plate (Corning #CLS3894). DB cells (ATCC #CRL-2289), cultured in RPMI-1640 medium (Thermo Scientific #11875093) supplemented with 10% FBS, were added at 5 X 10E5 cells/well and incubated for 30 minutes at 37° C. in a 5% CO2 humidified incubator. Changes in phospho-STAT3 levels in the cell lysates were detected using the Cisbio HTRF pSTAT3 (Tyr705) Cellular Assay Kit (Cisbio #62AT3PEH), according to manufacturer's Two Plate Assay protocol. Where not shown or it is marked as “0”, data was not yet determined.

IL-23R = molecular target: T1, IL-23R (Homo sapiens, UniProt Q5VWK5); assay: IL23R Reporter Assay; format: cell-based; settings: HEK293 cells containing IL-23R, IL-12Rβ1 and STAT-inducible firefly luciferase reporter; 10 ng/mL IL-23 (EC90); 5 h at 37° C.
T1 construct: HEK293 cells containing IL-23R, IL-12RP31 and a firefly luciferase reporter gene driven by a STAT-inducible promoter (Promega); host or cells: HEK293
T1 sequence (Q5VWK5 24-629): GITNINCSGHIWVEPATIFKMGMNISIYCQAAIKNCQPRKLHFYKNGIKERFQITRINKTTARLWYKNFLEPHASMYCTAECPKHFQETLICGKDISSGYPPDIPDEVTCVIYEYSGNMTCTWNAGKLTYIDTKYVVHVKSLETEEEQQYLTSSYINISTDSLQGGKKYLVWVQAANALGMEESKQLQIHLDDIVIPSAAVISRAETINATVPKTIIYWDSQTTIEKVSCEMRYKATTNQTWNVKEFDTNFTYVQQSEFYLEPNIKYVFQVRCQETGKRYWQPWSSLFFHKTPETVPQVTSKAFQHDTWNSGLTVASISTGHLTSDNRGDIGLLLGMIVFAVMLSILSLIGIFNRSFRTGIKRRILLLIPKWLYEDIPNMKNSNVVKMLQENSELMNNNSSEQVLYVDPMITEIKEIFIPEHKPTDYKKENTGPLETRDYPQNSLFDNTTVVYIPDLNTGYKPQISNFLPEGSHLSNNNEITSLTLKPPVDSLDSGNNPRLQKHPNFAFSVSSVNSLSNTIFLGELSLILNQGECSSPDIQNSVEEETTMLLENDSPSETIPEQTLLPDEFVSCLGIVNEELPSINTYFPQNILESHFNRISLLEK

Row | Substance | IC50 [1] | IC50 (IL-23R)
1 | Ac-[Lys(PEG4)]-[Pen]-L-T-[Trp(7-Me)]-[Lys(Ac)]-[Pen]-F-[2Nal]-[aMeLeu]-L-N-[3Pal]-[Sarc]-NH2 [Example 216] | 0.215 nM | –
2 | Ac-[Lys(PEG4)]-[Pen]-N-T-[Trp(7-Me)]-[Lys(Ac)]-[Pen]-F-[2Nal]-[aMeLeu]-L-N-[3Pal]-[Sarc]-NH2 [Example 215] | 0.0393 nM | –
3 | Ac-[Lys(PEG12_OMe)]-[Pen]-L-T-[Trp(7-Me)]-[Lys(Ac)]-[Pen]-F-[2Nal]-[aMeLeu]-L-N-[3Pal]-[Sarc]-NH2 [Example 206] | 0.129 nM | –
4 | Ac-[Lys(PEG12_OMe)]-[Pen]-N-T-[Trp(7-Me)]-[Lys(Ac)]-[Pen]-F-[2Nal]-[aMeLeu]-L-N-[3Pal]-[Sarc]-NH2 [Example 205] | 0.038 nM | –
5 | Ac-[Pen]-A-T-[Trp(7-Me)]-[Lys(Ac)]-[Pen]-[Phe(4-OMe)]-[2Nal]-[aMeLys(PEG12_IsoGlu_C18_Diacid)]-A-A-[3Pal]-[Sarc]-NH2 [Example 224] | 0.807 nM | –
6 | Ac-[Pen]-A-T-[Trp(7-Me)]-[Lys(Ac)]-[Pen]-[Phe(4-OMe)]-[2Nal]-[aMeLys(PEG12_IsoGlu_Palm)]-A-A-[3Pal]-[Sarc]-NH2 [Example 223] | 0.801 nM | –
7 | Ac-[Pen]-L-T-[Trp(7-Me)]-[Lys(Ac)]-[Pen]-[Phe(4-OMe)]-[2Nal]-[THP]-[Lys(Ac)]-[Lys(PEG12_C18_Diacid)]-[3Pal]-[Sarc]-NH2 [Example 239] | 5.16 nM | –
8 | Ac-[Pen]-L-T-[Trp(7-Me)]-[Lys(Ac)]-[Pen]-[Phe(4-OMe)]-[2Nal]-[THP]-[Lys(PEG12_C18_Diacid)]-L-[3Pal]-[Sarc]-NH2 [Example 242] | 4.15 nM | –
9 | Ac-[Pen]-L-T-[Trp(7-Me)]-[Lys(Ac)]-[Pen]-[Phe(4-OMe)]-[2Nal]-[THP]-[Lys(PEG12_IsoGlu_C18_Diacid)]-L-[3Pal]-[Sarc]-NH2 [Example 244] | 8.98 nM | –
10 | Ac-[Pen]-L-T-[Trp(7-Me)]-[Lys(IsoGlu_C18_Diacid)]-[Pen]-[Phe(4-OMe)]-[2Nal]-[THP]-L-L-[3Pal]-[Sarc]-NH2 [Example 263] | > 10 nM | –
11 | Ac-[Pen]-L-T-[Trp(7-Me)]-[Lys(IsoGlu_Palm)]-[Pen]-[Phe(4-OMe)]-[2Nal]-[THP]-[Lys(Ac)]-L-[3Pal]-[Sarc]-NH2 [Example 272] | > 10 nM | –
12 | Ac-[Pen]-L-T-[Trp(7-Me)]-[Lys(PEG4)]-[Pen]-F-[2Nal]-[aMeLeu]-L-N-[3Pal]-[Sarc]-NH2 [Example 214] | 0.433 nM | –
13 | Ac-[Pen]-L-T-[Trp(7-Me)]-[Lys(PEG4_C18_Diacid)]-[Pen]-[Phe(4-OMe)]-[2Nal]-[THP]-[Lys(Ac)]-L-[3Pal]-[Sarc]-NH2 [Example 270] | > 10 nM | –
14 | Ac-[Pen]-L-T-[Trp(7-Me)]-[Lys(PEG4_IsoGlu_C18_Diacid)]-[Pen]-[Phe(4-OMe)]-[2Nal]-[THP]-L-L-[3Pal]-[Sarc]-NH2 [Example 266] | > 10 nM | –
15 | Ac-[Pen]-L-T-[Trp(7-Me)]-[Lys(PEG4_IsoGlu_C18_Diacid)]-[Pen]-[Phe(4-OMe)]-[2Nal]-[THP]-[Lys(Ac)]-L-[3Pal]-[Sarc]-NH2 [Example 274] | > 10 nM | –
16 | Ac-[Pen]-L-T-[Trp(7-Me)]-[Lys(PEG4_IsoGlu_Palm)]-[Pen]-[Phe(4-OMe)]-[2Nal]-[THP]-L-L-[3Pal]-[Sarc]-NH2 [Example 265] | > 10 nM | –
17 | Ac-[Pen]-L-T-[Trp(7-Me)]-[Lys(PEG4_IsoGlu_Palm)]-[Pen]-[Phe(4-OMe)]-[2Nal]-[THP]-[Lys(Ac)]-L-[3Pal]-[Sarc]-NH2 [Example 273] | > 10 nM | –
18 | Ac-[Pen]-L-T-[Trp(7-Me)]-[Lys(PEG12_C18_Diacid)]-[Pen]-[Phe(4-OMe)]-[2Nal]-[THP]-[Lys(Ac)]-L-[3Pal]-[Sarc]-NH2 [Example 269] | 2.63 nM | –
19 | Ac-[Pen]-L-T-[Trp(7-Me)]-[Lys(PEG12_IsoGlu_Palm)]-[Pen]-[Phe(4-OMe)]-[2Nal]-[THP]-L-L-[3Pal]-[Sarc]-NH2 [Example 267] | > 10 nM | –
20 | Ac-[Pen]-L-T-[Trp(7-Me)]-[Lys(PEG12_IsoGlu_Palm)]-[Pen]-[Phe(4-OMe)]-[2Nal]-[THP]-[Lys(Ac)]-L-[3Pal]-[Sarc]-NH2 [Example 275] | 2.37 nM | –
21 | Ac-[Pen]-L-T-[Trp(7-Me)]-[Lys(PEG12_OMe)]-[Pen]-F-[2Nal]-[aMeLeu]-L-N-[3Pal]-[Sarc]-NH2 [Example 210] | 0.0798 nM | –

Row | Substance | IC50 [1] | IC50 (IL-23R)
22 | Ac-[Pen]-L-[Lys(PEG12_IsoGlu_C18_Diacid)]-[Trp(7-Me)]-[Lys(Ac)]-[Pen]-[Phe(4-OMe)]-[2Nal]-[THP]-[Lys(Ac)]-L-[3Pal]-[Sarc]-NH2 [Example 247] | > 10 nM | –
23 | Ac-[Pen]-L-[Lys(PEG12_IsoGlu_Palm)]-[Trp(7-Me)]-[Lys(Ac)]-[Pen]-[Phe(4-OMe)]-[2Nal]-[THP]-[Lys(Ac)]-L-[3Pal]-[Sarc]-NH2 [Example 246] | > 10 nM | –
24 | Ac-[Pen]-N-T-[Trp(7-Me)]-[Lys(Ac)]-[Pen]-F-[2Nal]-[aMeLys(PEG12_IsoGlu_Palm)]-E-L-[3Pal]-[Sarc]-NH2 [Example 222] | 2.62 nM | –
25 | Ac-[Pen]-N-T-[Trp(7-Me)]-[Lys(Ac)]-[Pen]-F-[2Nal]-[aMeLys(PEG12_IsoGlu_Palm)]-L-L-[3Pal]-[Sarc]-NH2 [Example 221] | 5.22 nM | –
26 | Ac-[Pen]-N-T-[Trp(7-Me)]-[Lys(Ac)]-[Pen]-F-[2Nal]-[aMeLys(PEG12_IsoGlu_Palm)]-[Lys(Ac)]-L-[3Pal]-[Sarc]-NH2 [Example 234] | 0.512 nM | –
27 | Ac-[Pen]-N-T-[Trp(7-Me)]-[Lys(Ac)]-[Pen]-[2Nal]-[2Nal]-[aMeLys(PEG12_IsoGlu_Palm)]-E-L-[3Pal]-[Sarc]-NH2 [Example 219] | 2.87 nM | –
28 | Ac-[Pen]-N-T-[Trp(7-Me)]-[Lys(Ac)]-[Pen]-[2Nal]-[2Nal]-[aMeLys(PEG12_IsoGlu_Palm)]-[Lys(Ac)]-L-[3Pal]-[Sarc]-NH2 [Example 220] | 2.68 nM | –
29 | Ac-[Pen]-N-T-[Trp(7-Me)]-[Lys(Ac)]-[Pen]-[Phe(4-(2-(1PEG2_1PEG2_IsoGlu_C18_Diacid)aminoethoxy))]-[2Nal]-[THP]-[Lys(Ac)]-L-[3Pal]-[Sarc]-NH2 [Example 229] | 3.51 nM | –
30 | MeCO-K(gEC16)-Pen*-N-T-7MeW-K(Ac)-Pen*-AEF-2Nal-THP-K(gEC18)-N-3Pya-Sar-CONH2 [Example 125] | – | 0.075 nM
31 | MeCO-K(gEC18)-Pen*-K(gEC18)-T-7MeW-K(Ac)-Pen*-AEF-2Nal-THP-K(Ac)-N-3Pya-Sar-CONH2 [Example 80] | – | > 16.6 nM
32 | MeCO-K(gEC18)-Pen*-N-T-7MeW-K(Ac)-Pen*-AEF-2Nal-THP-K(gEC18)-N-3Pya-Sar-CONH2 [Example 126] | – | 0.16 nM
33 | MeCO-K(gEC18OH)-Pen*-N-T-7MeW-K(Ac)-Pen*-AEF-2Nal-THP-K(Ac)-N-3Pya-N(4AmBenzyl)Gly-CONH2 [Example 87] | – | 0.079 nM
34 | MeCO-K(gEC18OH)-Pen*-N-T-7MeW-K(Ac)-Pen*-AEF-2Nal-THP-K(Ac)-N-3Pya-Sar-CONH2 [Example 48] | – | 0.045 nM
35 | MeCO-K[PEG2PEG2gEDAP(pXOH)2]-Pen*-N-T-7MeW-K(Ac)-Pen*-AEF-2Nal-THP-K(Ac)-N-3Pya-Sar-CONH2 [Example 133] | – | 0.031 nM
36 | MeCO-Pen*-N-T-7MeW-K(Ac)-Pen*-AEF-2Nal-THP-K(PEG6gEC16OH)-N-3Pya-Sar-CONH2 [Example 32] | – | 0.021 nM
37 | MeCO-Pen*-N-T-7MeW-K(Ac)-Pen*-AEF-2Nal-THP-K(PEG24C18OH)-N-3Pya-Sar-CONH2 [Example 47] | – | 0.041 nM
38 | MeCO-Pen*-N-T-7MeW-K(Ac)-Pen*-AEF-2Nal-THP-K(PEG24gEC16OH)-N-3Pya-Sar-CONH2 [Example 44] | – | 0.02 nM
39 | MeCO-Pen*-N-T-7MeW-K(Ac)-Pen*-AEF-2Nal-THP-K(PEG24gEC18OH)-N-3Pya-Sar-CONH2 [Example 45] | – | 0.039 nM
40 | MeCO-r-Pen*-N-T-7MeW-K(Ac)-Pen*-AEF-2Nal-THP-K(PEG2PEG2gETrxC18OH)-N-3Pya-Sar-CONH2 [Example 58] | – | 0.094 nM
41 | MeCO-r-Pen*-N-T-7MeW-K(Ac)-Pen*-AEF-2Nal-THP-K(PEG2PEG2gETrxC20OH)-N-3Pya-Sar-CONH2 [Example 59] | – | 0.18 nM
